Earlier results, collected in patent US6124256A, “Method for the prevention of a patient's fibroproliferative vasculopathy” (priority 1998, dated 2000).

Protein sequences, listed by entry. Tags and fused reporters are not part of them. Lines headed by an entry give the natural chain unless they say otherwise; changes in a name come on top.
UniProt P30872: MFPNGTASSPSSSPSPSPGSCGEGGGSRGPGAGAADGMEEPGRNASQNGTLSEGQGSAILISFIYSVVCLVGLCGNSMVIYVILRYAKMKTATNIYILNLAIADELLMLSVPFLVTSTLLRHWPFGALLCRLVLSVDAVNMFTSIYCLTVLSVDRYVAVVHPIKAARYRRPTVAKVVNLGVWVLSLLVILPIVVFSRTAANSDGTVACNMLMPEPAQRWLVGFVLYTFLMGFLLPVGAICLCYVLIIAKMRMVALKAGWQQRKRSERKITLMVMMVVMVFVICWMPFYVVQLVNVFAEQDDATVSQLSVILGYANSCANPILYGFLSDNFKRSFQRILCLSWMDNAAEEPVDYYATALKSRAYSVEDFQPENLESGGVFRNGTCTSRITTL
UniProt P31391: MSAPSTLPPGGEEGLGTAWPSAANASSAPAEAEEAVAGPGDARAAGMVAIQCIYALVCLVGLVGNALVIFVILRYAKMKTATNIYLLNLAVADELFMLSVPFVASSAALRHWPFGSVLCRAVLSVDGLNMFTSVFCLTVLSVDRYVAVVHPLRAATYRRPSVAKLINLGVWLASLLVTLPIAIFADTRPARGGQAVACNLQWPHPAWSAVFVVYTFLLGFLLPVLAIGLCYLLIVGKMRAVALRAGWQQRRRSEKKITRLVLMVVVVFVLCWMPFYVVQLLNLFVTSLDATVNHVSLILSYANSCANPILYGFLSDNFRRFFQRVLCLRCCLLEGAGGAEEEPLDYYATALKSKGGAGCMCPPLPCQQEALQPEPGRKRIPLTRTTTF
UniProt P32745: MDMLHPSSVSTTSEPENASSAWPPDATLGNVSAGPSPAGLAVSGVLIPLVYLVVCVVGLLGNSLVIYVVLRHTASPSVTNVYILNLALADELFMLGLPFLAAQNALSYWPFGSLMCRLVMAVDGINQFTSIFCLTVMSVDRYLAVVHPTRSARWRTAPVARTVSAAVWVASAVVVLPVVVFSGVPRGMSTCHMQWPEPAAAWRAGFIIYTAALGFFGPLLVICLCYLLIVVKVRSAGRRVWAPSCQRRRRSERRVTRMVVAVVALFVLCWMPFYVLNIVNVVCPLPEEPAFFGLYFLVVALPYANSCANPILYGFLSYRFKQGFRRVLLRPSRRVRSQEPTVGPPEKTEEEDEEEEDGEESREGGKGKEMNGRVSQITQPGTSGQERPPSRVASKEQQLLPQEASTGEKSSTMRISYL
UniProt P35346: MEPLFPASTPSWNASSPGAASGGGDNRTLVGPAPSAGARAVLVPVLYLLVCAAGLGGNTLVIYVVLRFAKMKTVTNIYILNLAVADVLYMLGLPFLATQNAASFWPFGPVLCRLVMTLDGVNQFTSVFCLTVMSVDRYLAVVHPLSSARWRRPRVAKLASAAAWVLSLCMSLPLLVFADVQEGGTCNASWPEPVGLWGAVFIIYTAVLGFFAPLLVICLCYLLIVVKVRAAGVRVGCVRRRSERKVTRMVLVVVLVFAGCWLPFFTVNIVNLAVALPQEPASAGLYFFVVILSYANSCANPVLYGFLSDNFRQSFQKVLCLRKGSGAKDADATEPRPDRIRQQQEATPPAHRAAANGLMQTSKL
UniProt P30874: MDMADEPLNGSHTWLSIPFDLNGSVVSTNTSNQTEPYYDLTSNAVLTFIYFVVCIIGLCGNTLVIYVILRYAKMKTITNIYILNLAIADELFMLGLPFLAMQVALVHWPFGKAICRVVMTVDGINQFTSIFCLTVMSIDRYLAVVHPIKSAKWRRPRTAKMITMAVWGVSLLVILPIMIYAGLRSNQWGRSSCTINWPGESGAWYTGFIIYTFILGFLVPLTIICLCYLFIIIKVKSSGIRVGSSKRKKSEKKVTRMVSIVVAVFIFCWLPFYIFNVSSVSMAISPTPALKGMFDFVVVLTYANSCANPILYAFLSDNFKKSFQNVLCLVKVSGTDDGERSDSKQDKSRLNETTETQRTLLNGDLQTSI

Tests used:
[1] = target: T1, hSSTR1 (Homo sapiens, UniProt P30872); conditions: human receptor in transfected CHO cell lines; read-out: binding affinities Ki hSSTR1
T1 construct: expressed in transfected cells; host or cells: CHO

[2] = target: T2, hSSTR4 (Homo sapiens, UniProt P31391); conditions: human receptor in transfected CHO cell lines; read-out: binding affinities Ki hSSTR4
T2 construct: expressed in transfected cells; host or cells: CHO

[3] = target: hSSTR3 (Homo sapiens, UniProt P32745); parameters: expressed in transfected cells; host or cells: CHO; conditions: human receptor in transfected CHO cell lines; read-out: binding affinities Ki hSSTR3
[4] = target: T3, hSTR5 (Homo sapiens, UniProt P35346); conditions: human receptor in transfected CHO cell lines; read-out: binding affinities Ki hSTR5
T3 construct: expressed in transfected cells; host or cells: CHO

[5] = target: SSTR2 (Homo sapiens, UniProt P30874); parameters: expressed in transfected cells; host or cells: CHO; conditions: human receptor in transfected CHO cell lines; read-out: binding affinities Ki hSSTR2

Question: Which results are given for “somatostatin SRIF-28 [Somatostatin (SRIF-28)]”?
Answer: Ki [1]: 2.2 nM; Ki [2]: 1.1 nM; Ki [3]: 6.1 nM; Ki [4]: 0.07 nM; Ki [5]: 4.1 nM
